# According to patent publication US20120039957A1, “OPTIMIZED NIACIN COMPOSITIONS IN PHARMACEUTICAL PRODUCTS” (ACURA PHARMACEUTICALS, INC., priority 2010, published 2012):
smiles,measurement,value
"O=C(O)c1cccnc1 [micronized niacin, niacin]",increase of kinetic solubility relative to reference after 24 hours,50%
